This is an account of results in ChEMBL document CHEMBL1149288, “Effects of substitution on the pyrrole N atom in derivatives of tetrahydronaltrindole, tetrahydrooxymorphindole, and a related 4,5-epoxyphenylpyrrolomorphinan” (J Med Chem, 2004).

The chains behind the UniProt entries cited, without tags or fusion partners.
UniProt P35372, whole entry: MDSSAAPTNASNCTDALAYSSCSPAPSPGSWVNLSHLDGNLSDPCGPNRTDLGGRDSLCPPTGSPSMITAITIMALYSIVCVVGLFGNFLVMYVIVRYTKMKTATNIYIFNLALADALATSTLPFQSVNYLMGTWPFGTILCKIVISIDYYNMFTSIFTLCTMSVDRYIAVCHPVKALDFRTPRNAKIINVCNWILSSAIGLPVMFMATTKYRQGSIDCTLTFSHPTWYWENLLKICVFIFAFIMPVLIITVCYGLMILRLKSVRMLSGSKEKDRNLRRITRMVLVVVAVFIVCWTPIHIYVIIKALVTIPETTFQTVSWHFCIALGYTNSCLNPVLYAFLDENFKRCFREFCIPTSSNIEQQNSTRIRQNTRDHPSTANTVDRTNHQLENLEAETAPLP

In this experiment the target is Mu-type opioid receptor (Homo sapiens, UniProt P35372). In words: Displacement of [3H]DAMGO from human recombinant mu opioid receptor expressed in CHO cells. Format: cell-based. Summed up:
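Radioligand displacement was run on human recombinant receptors expressed in CHO cells. The labels were [3H]DAMGO for MOR and [3H]U69593 for KOR. Values are the mean of two experiments, each in triplicate.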
In general terms: Displacement assays read how much labelled ligand stays bound in the presence of the test substance.

The Ki is a measure of affinity in units of concentration, obtained from inhibition or displacement. `CN1CC[C@]23c4c5ccc(O)c4O[C@H]2c2c(c4c(n2C)CCCC4)C[C@@]3(O)C1C5`: the Ki was found to be 25.2 nM.
